Compounds with a hit are over-represented: about 13% of the library has one in this group of screens.
ALDH1A1 inh = inhibitors of human aldehyde dehydrogenase 1A1. AID 1030. 220,000 tested, 7.3% active. Potency, µM (series often up to 75.3 µM), for the others: at the top dose activity, negative = inhibition, hits mostly inhibitors. Purified ALDH1A1, NADH fluorescence, propionaldehyde substrate; active = well fitted inhibition curve with a large enough effect, not every such curve was filed as active; inconclusive = small, poorly fitted or top-dose-only effect, or another doubt; inactive = no such curve, though single readings can be large or run the other way;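 also: potency is read from the fitted curve at half-maximal effect; plate controls were no enzyme wells and a reference inhibitor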
KDM4E inh = blocks human JMJD2E demethylase activity | Potency, µM (series often up to 57.1 µM), for inactives: at the highest dose activity change, negative = inhibition, usual class: inhibitors | B2RXH2 | AID 2147 | 230,000 tested, 1.6% active | JMJD2E catalytic domain, FDH-coupled NADH fluorescence (FDH is formaldehyde dehydrogenase);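 also: potency is read from the fitted curve at half-maximal effect; 0% = wells with enzyme and -100% = buffer wells without enzyme; nearly all actives have a fitted effect of over 50% in size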
G9a inh = inhibitors of human histone lysine methyltransferase G9a. Q96KQ7. G9a H3K9 monomethylation, AlphaScreen, 2 h. Potency, µM (top dose mostly 102 µM), inactives show top-dose activity, negative = inhibition, hits mostly inhibitors. 350,000 tested, 8.8% active. AID 504332; also: potency is read from the fitted curve at half-maximal effect; % is scaled to controls: 0 for no effect and ±100 for the full control effect; nearly all actives have a fitted effect of over 75% in size
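Readings reflect AlphaScreen signal from monomethyl-H3K9 antibody detection. HMT at 20 nM; substrate b-H3K9 500 nM; cofactor SAM 20 uM; 2 h RT reaction; compounds tested as titrations in qHTS with 15 min preincubation.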
LMNA splice mod = modulators of lamin A splicing. HeLa LMNA splicing GFP/RFP minigene ratio, 48 h. Potency, µM (titrated, usually from 46.1 µM), inactives show at the highest dose ratio change, negative = inhibition, usual class: inhibitors. 200,000 tested, 0.01% active; active = well fitted inhibition curve with a large enough effect in the signal ratio, with a control signal flat, not every such curve was filed as active; inconclusive = small, poorly fitted or top-dose-only effect, or effect the other way, or a change in a side signal; the % refers to the signal ratio; also: potency is read from the fitted curve at half-maximal effect; % is scaled to controls: 0 for no effect and ±100 for the full control effect
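S3 HeLa stable clones carrying a lamin A-EGFP splicing minigene plus DsRed2 were seeded at 600 cells/well in Opti-MEM with 2% FBS, pin-dosed and incubated 48 h at 37°C. Acumen cytometry (488 nm) gave the GFP/RFP total-intensity ratio.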
Sfp PPTase inh = inhibitors of Bacillus subtilis Sfp phosphopantetheinyl transferase | 310,000 compounds, 3.5% hits | Potency, µM, without a hit: max response, negative = inhibition, most hits filed as inhibitors | Q9F4F7 | Biochemical Sfp PPTase activity, qHTS; active = well fitted inhibition curve with a large enough effect; inconclusive = small, poorly fitted or top-dose-only effect, or another doubt; inactive = no such curve, though single readings can be large or run the other way;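 also: the enzyme is Sfp with the accession as filed and its product quenches rhodamine fluorescence; potency is read from the fitted curve at half-maximal effect; 0% = enzyme reaction without inhibitor and -100% = no enzyme wells; top concentration of the series not given in the record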
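After 15 min at room temperature with compound, 15 nM Sfp received 5 uM rhodamine-CoA plus 12.5 uM BHQ-2-ybbR (50 mM Hepes pH 7.6, 10 mM MgCl2). Rate came from the fluorescence difference over 30 min, ex 525/em 598 nm.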
miR-21 reporter = miR-21 reporter, rising signal; Potency, µM (titrated, usually from 38.3 µM), without a hit: at the highest dose reporter change, positive = more light; AID 2288; 340,000 tested, under 10 active; HeLa miR-21 FLuc reporter, luciferase, 48 h; active = well fitted rising curve with a large enough effect; inconclusive = small, poorly fitted or top-dose-only effect; inactive = no such curve, though single readings can be large or run the other way;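 note: % of control where 0% means no effect; miR-21 action dims this reporter so a rising signal means less miR-21 action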
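HeLa cells stably expressing CMV-driven firefly luciferase with a downstream miR-21 binding sequence, endogenously expressing miR-21, were treated with titrations (up to about 40uM final) for 48 hours at 37 degree Celsius. Luciferase luminescence was read after lysis.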
Starred values were filed as active, the others as inactive; ? = inconclusive; / = no result given; ! = not active in a repeat; [ ] = another dose, or the depositor's remark. Unless noted, calls follow the shape of the dose curve; as a rule, active = well fitted curve in the direction sought with a large enough effect; inconclusive = small, poorly fitted or top-dose-only effect, or another doubt; inactive = no such curve, though single readings can be large; an effect the other way counts as inactive or inconclusive.

Keys: A = ALDH1A1 inh; B = KDM4E inh; C = G9a inh; D = LMNA splice mod; E = Sfp PPTase inh; F = miR-21 reporter
[1] COCC(C)NC(=O)CSc1nc2ccccc2n1CCc1ccccc1 (stereo not drawn)
  A: ? | B: -13% | C: 71µM* | D: -9% | E: -18% | F: -2%
[2] COC(=O)c1ccc(OCc2nn[nH]n2)cc1
  A: / | B: / | C: -5% | D: / | E: 17% | F: -2%
[3] Cc1ccc(C(C)C)c(OCCSc2nc3ccccc3n2CC(O)CO)c1 (stereo not drawn)
  A: / | B: / | C: -41%[59 µM] | D: / | E: / | F: 7%
[4] COc1ccc(-c2noc(CSCC(=O)Nc3ccc(C)cc3Br)n2)cc1OC
  A: / | B: / | C: 3%[59 µM] | D: 4%[46 µM] | E: / | F: -2%
[5] CC(c1ccco1)N(C(=O)c1cccc(Br)c1)c1ccccn1 (stereo not drawn)
  A: / | B: / | C: ? | D: / | E: 15% | F: -5%
[6] Cc1cccc(Nc2nc(-c3ccccc3)c3cc(C)ccc3n2)c1
  A: / | B: / | C: 104%[59 µM] | D: / | E: / | F: 3%
[7] COc1ccc(CNc2nc(-c3ccccc3)nn2C(=O)c2ccc([N+](=O)[O-])cc2)cc1
  A: -11% | B: ? | C: ? | D: -5% | E: 1% | F: -62%
[8] COc1ccc(CNc2nc(-c3ccccc3)nn2C(=O)c2cccs2)cc1
  A: 25µM* | B: ? | C: 30% | D: 19% | E: -12% | F: -6%
[9] CCOc1ccc(CNC(=O)c2ccc3c(c2)nc2n3CCCCC2)cc1
  A: / | B: / | C: -6%[59 µM] | D: ? | E: / | F: -66%
[10] CCOC(=O)c1ccc(S(=O)(=O)N2CCN(C)CC2)cc1
  A: 2% | B: -7% | C: -14% | D: -1% | E: -3% | F: -6%
[11] CC(=O)c1ccc(OCC(O)CN2CCN(Cc3ccc4c(c3)OCO4)CC2)cc1 (stereo not drawn)
  A: 4% | B: 5% | C: ? | D: -1% | E: 89µM*! | F: 1%
[12] CC(=O)c1ccc(OCC(O)CN2CCN(CCO)CC2)cc1 (stereo not drawn)
  A: -7% | B: -2% | C: -18%[59 µM] | D: -4% | E: 19% | F: -4%
[13] Cc1ccc(OCC(O)CN2CCN(Cc3ccc4c(c3)OCO4)CC2)c(C)c1 (stereo not drawn)
  A: 3% | B: 8% | C: -6%[59 µM] | D: 15% | E: 8% | F: -6%
[14] CCN1CCN(CC(O)COc2ccc(C(C)=O)cc2)CC1 (stereo not drawn)
  A: -3% | B: 0% | C: 50µM* | D: 8% | E: 10% | F: -2%
[15] CCOC(=O)c1ccc(S(=O)(=O)N2CCN(CC(O)COc3ccc(C#N)cc3)CC2)cc1 (stereo not drawn)
  A: / | B: / | C: 35µM* | D: / | E: -20% | F: 4%
[16] COc1ccc(OCC(O)CN2CCN(Cc3ccc4c(c3)OCO4)CC2)cc1 (stereo not drawn)
  A: -3% | B: -2% | C: 20µM* | D: ? | E: 15% | F: -2%
[17] CC1(C)OCC([C@H](O)C2=CCCCC2=O)CO1
  A: 5% | B: -6% | C: / | D: / | E: 10% | F: /
[18] COc1ccc(S(=O)(=O)Nc2ccc(-c3cn4ccsc4n3)cc2)cc1C
  A: / | B: / | C: -10%[59 µM] | D: 2%[46 µM] | E: / | F: -8%
[19] COC(=O)c1ccc(N2NC(=O)/C(=C/c3ccc(-c4ccc(Cl)c(C(=O)O)c4)o3)C2=O)cc1
  A: 8.9µM* | B: -26% | C: 18µM* | D: 10%[46 µM] | E: -10% | F: 0%
[20] O=C1NN(c2ccc(Cl)c(Cl)c2)C(=O)/C1=C/c1ccc(-c2ccccc2C(=O)O)o1
  A: / | B: / | C: 40µM* | D: / | E: 25% | F: 2%
[21] CCOc1ccc(CNc2cc(C)nc3nc(-c4cccc(C)c4)nn23)cc1OC
  A: / | B: / | C: 1%[59 µM] | D: -9%[46 µM] | E: / | F: -14%
[22] Cc1nnc(SCC(=O)NCc2ccco2)[nH]c1=O
  A: ? | B: ? | C: 50µM* | D: ? | E: 56µM* | F: -1%
[23] Cc1ccc2c(SCC(=O)NCc3ccco3)nc(-c3ccc(F)cc3)nc2c1
  A: 12% | B: 9% | C: -5%[59 µM] | D: 0% | E: -1% | F: -1%
[24] Cc1cc(C)n2nc(SC(C)C(=O)NCc3ccco3)nc2n1 (stereo not drawn)
  A: ? | B: -4% | C: 56µM* | D: 13% | E: 9% | F: -5%
[25] Cc1cc(C)c2cc(C)c(SCC(=O)NCc3ccco3)nc2c1
  A: 14µM* | B: -9% | C: -7% | D: 5%[46 µM] | E: 4% | F: 17%

Single records, from the list above.
O=C1NN(c2ccc(Cl)c(Cl)c2)C(=O)/C1=C/c1ccc(-c2ccccc2C(=O)O)o1 as listed: ALDH1A1 inh: /; KDM4E inh: /; G9a inh: 40µM*; LMNA splice mod: /; Sfp PPTase inh: 25%; miR-21 reporter: 2%
COc1ccc(-c2noc(CSCC(=O)Nc3ccc(C)cc3Br)n2)cc1OC as listed: ALDH1A1 inh: /; KDM4E inh: /; G9a inh: 3%[59 µM]; LMNA splice mod: 4%[46 µM]; Sfp PPTase inh: /; miR-21 reporter: -2%

The results go on.
Keys: A = ALDH1A1 inh; B = KDM4E inh; C = G9a inh; D = LMNA splice mod; E = Sfp PPTase inh; F = miR-21 reporter
[26] Cc1cccc(Cc2c(C)nc3nc(SCC(=O)NCc4ccco4)nn3c2C)c1
  A: 25µM* | B: -2% | C: ? | D: 5% | E: 45µM* | F: 1%
[27] Cc1cccc(N(C(=O)CNC(=O)c2ccco2)C(C(=O)NC2CCCC2)c2ccncc2)c1C (stereo not drawn)
  A: / | B: / | C: 16% | D: / | E: 18% | F: -3%
[28] CCOC(=O)CSc1nc2cc(C)cc(C)c2cc1C#N
  A: -9% | B: -14% | C: 83% | D: -4% | E: -3% | F: -31%
[29] Cc1cc(C)c2cc(C#N)c(SCC(=O)NCc3ccco3)nc2c1
  A: ? | B: ? | C: ? | D: -6% | E: 22µM* | F: -17%
[30] O=C(c1ncc[nH]1)c1cccs1
  A: / | B: -10% | C: 13% | D: / | E: 6% | F: -30%
[31] O=S(=O)(CCN1C=CC(C(F)(F)F)=NCC1)c1ccc(Cl)cc1Cl
  A: 13µM* | B: 0% | C: -32% | D: / | E: 3% | F: 0%
[32] CCCOC(=O)CN1C(=O)c2ccccc2C1=O
  A: 22µM* | B: -3% | C: 2%[59 µM] | D: 16% | E: -2% | F: 4%
[33] CCOC(=O)CN1C(=O)c2ccccc2C1=O
  A: 5% | B: 3% | C: 10%[12.7 µM] | D: -10% | E: 25% | F: 1%
[34] Cc1ccc(OCC(=O)OCCN2C(=O)c3ccccc3C2=O)cc1C
  A: 0% | B: 1% | C: 5% | D: -2% | E: 11% | F: -1%
[35] Cc1cc(C)cc(OCC(=O)OCCN2C(=O)c3ccccc3C2=O)c1
  A: -25% | B: -1% | C: 56µM* | D: 2% | E: -20% | F: -1%
[36] O=C(COC(=O)CN1C(=O)C(=O)c2ccccc21)OCN1C(=O)c2ccccc2C1=O
  A: 0.089µM* | B: 8% | C: 12%[2.33 µM] | D: -5% | E: 5% | F: 1%
[37] O=C(CCN1C(=O)c2ccccc2C1=O)OCN1C(=O)c2ccccc2C1=O
  A: -6% | B: -7% | C: ? | D: -3% | E: 15% | F: -2%
[38] C=CCNC(=O)C1CC1(c1ccc(C)cc1)c1ccc(C)cc1 (stereo not drawn)
  A: / | B: / | C: / | D: / | E: 8% | F: 20%
[39] CCN(CC)S(=O)(=O)c1cc(NC(=O)CN2C(=O)NC3(CCCc4ccccc43)C2=O)ccc1C (stereo not drawn)
  A: 2% | B: -2% | C: 50µM* | D: ? | E: ? | F: 11%
[40] Cc1ccc(NC(=O)CN2C(=O)NC3(CCCc4ccccc43)C2=O)cc1S(=O)(=O)N1CCOCC1 (stereo not drawn)
  A: -12% | B: -8% | C: ? | D: ? | E: 21% | F: 0%
[41] CCN(c1ccc(NC(=O)CN2C(=O)NC3(CCOc4ccccc43)C2=O)cc1)C(C)C (stereo not drawn)
  A: ? | B: -14% | C: 3.2µM* | D: -5% | E: 3% | F: -15%
[42] O=C(CN1C(=O)NC2(CCCCCC2)C1=O)N1CCC(Cc2ccccc2)CC1
  A: 22µM* | B: -2% | C: ? | D: ? | E: 12% | F: 3%
[43] CCNC(=O)CN1C(=O)NC2(CCOc3ccccc32)C1=O (stereo not drawn)
  A: / | B: / | C: 18% | D: / | E: 4% | F: -2%
[44] O=C(CN1C(=O)NC2(CCCCC2)C1=O)N1CCN(S(=O)(=O)c2ccccc2)CC1
  A: -4% | B: -1% | C: 8% | D: / | E: 16% | F: -3%
[45] Cc1cccc(NC(=O)CNC(=O)CN2C(=O)NC3(CCc4ccccc43)C2=O)c1C (stereo not drawn)
  A: / | B: / | C: 45µM* | D: / | E: / | F: /
